GIV-Gai inh: blocks GIV peptide binding to rat Galpha-i3. P08753. Galpha-i3/FITC-GIV peptide fluorescence polarization, 90 min; stronger effect = lower value; scaled: aluminum fluoride 0%, vehicle 100%. percent of control (FP), % (test concentration not listed). 0.42% of 210,000 active. AID 1224905;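 active = replicate mean at 85% of control or lower, very high polarization wells dropped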;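 also: wells of about 15 µL received 100 nL stock; the first replicate is given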
HCMV UL50-53 inh: inhibitors of HCMV UL50-UL53 interaction, biochemical, HTRF. normalized percent inhibition. inhibition, % (test concentration not listed). 0.15% of 190,000 active; in the data active = inhibition above about 27%, passing the limit was not always enough
Of the large screens only hits and unclear results are named; the others gave an inactive call. Most compounds without a hit are left out; they make up all but 0.43% or so of the library.

CCC(C)OC(=O)C1=C(C)NC2(O)c3ccccc3C(=O)C12O (stereo not drawn)	none (no result: HCMV UL50-53 inh)
CC1=C(C(=O)OC(C)C)C2(O)C(=O)c3ccccc3C2(O)N1 (stereo not drawn)	HCMV UL50-53 inh 60.8
COc1ccc(NC(=O)COc2ccc(C)cc2)cc1CN1CCn2c(nc3ccccc32)C1	none
CCOC(=O)C1=C(C)OC(N)=C(C#N)C1c1ccccc1C (stereo not drawn)	none (no result: HCMV UL50-53 inh)
CC(=O)OCc1cc(C2C(C#N)=C(N)OC(N)=C2C#N)c(C)cc1C	GIV-Gai inh -1.1 (no result: HCMV UL50-53 inh)
CCOc1ccc(NC(=O)c2ccc(N3CC4CC(C3)c3cccc(=O)n3C4)c(NC(=O)/C=C/c3ccccc3)c2)cc1 (stereo not drawn)	none (no result: HCMV UL50-53 inh)
CC(C)CNC(=O)C1CCN(c2ccc(-c3ccccc3)nn2)CC1	none
CCCCCCCNC(=O)C1CCN(c2ccc(-c3ccccc3)nn2)CC1	HCMV UL50-53 inh 31.0
CC(C)CSc1nc2cc3c(cc2c(=O)n1Cc1ccco1)OCO3	none
CCOC(=O)Cn1nnnc1CN(Cc1cc2c(C)ccc(C)c2[nH]c1=O)C1CCCCC1	none
CCCS(=O)(=O)N1N=C(c2ccc(C)cc2)CC1c1ccco1 (stereo not drawn)	GIV-Gai inh 7.4
CCCS(=O)(=O)N1N=C(c2ccc(Cl)cc2)CC1c1ccco1 (stereo not drawn)	none
CCN(CC)c1ccc(/C=c2\sc3n(c2=O)C(c2ccc(OC)cc2OC)C(C(C)=O)=C(C)N=3)c(OC)c1 (stereo not drawn)	GIV-Gai inh 84.9
COc1ccc(C2C(C(C)=O)=C(C)N=c3s/c(=C\c4cc(C)n(-c5ccccc5)c4C)c(=O)n32)c(OC)c1 (stereo not drawn)	none
O=C(Nc1ccc2c(c1)OCCO2)c1ccc(N2CC3CC(C2)c2cccc(=O)n2C3)c(NC(=O)c2ccccc2Cl)c1 (stereo not drawn)	none (no result: HCMV UL50-53 inh)
O=c1[nH]c(=O)n(-c2ccccc2)c(O)c1C=Nc1ccc(S(=O)(=O)N2CCCCC2)cc1	none
NS(=O)(=O)c1ccc(N=Cc2c(O)ccc3ccccc23)cc1	HCMV UL50-53 inh 96.6 (no result: GIV-Gai inh)
O=S(=O)(/N=C/c1c(O)ccc2ccccc12)c1ccccc1	none (no result: HCMV UL50-53 inh)
O=S(=O)(c1ccc(N=Cc2c(O)ccc3ccccc23)cc1)N1CCCCC1	HCMV UL50-53 inh 76.1 (no result: GIV-Gai inh)
CC\C=C/C=C/C=C/C=C\CCCCCCCC(=O)O	none (no result: GIV-Gai inh)
COc1ccc(Nc2nnc(-c3cc4c(ccc5ccccc54)oc3=O)s2)cc1	none
O=c1oc2cc(O)ccc2cc1-c1nnc(Nc2ccccc2F)s1	none
O=c1oc2cc(O)ccc2cc1-c1nnc(NCc2ccccc2)s1	GIV-Gai inh -32.0 (no result: HCMV UL50-53 inh)
O=c1oc2cc(O)ccc2cc1-c1nc2ccccc2s1	GIV-Gai inh -78.8
O=C(Oc1ccc2cc(-c3ccc(F)cc3)c(=O)oc2c1)c1ccco1	none
O=C(Oc1ccc2cc(-c3nc4ccccc4s3)c(=O)oc2c1)c1ccco1	GIV-Gai inh -41.9 (no result: HCMV UL50-53 inh)
COc1cccc(Nc2nnc(-c3cc4ccc(O)cc4oc3=O)s2)c1	GIV-Gai inh -69.2 (no result: HCMV UL50-53 inh)
CCOc1ccc2cc(-c3nc4ccccc4s3)c(=O)oc2c1	none
CC1CN(CC(O)COc2ccc(C3CCCCC3)cc2)CC(C)O1 (stereo not drawn)	none (no result: GIV-Gai inh)
CCOc1ccc2nc(N3CCC(C(=O)NCCc4ccc(OC)cc4OC)CC3)sc2c1	none
CCOC(=O)C1=C(C)N=c2s/c(=C/c3ccc(N4CCOCC4)o3)c(=O)n2C1c1ccc(OC)c(Br)c1 (stereo not drawn)	none (no result: HCMV UL50-53 inh)
O=C1C=C(Nc2ncn[nH]2)CC(c2cccs2)C1 (stereo not drawn)	none (no result: HCMV UL50-53 inh)
C=Cc1c(C)/c2[n-]/c1=C\c1[n-]c(c(CC)c1C)/C=c1\[n-]c3c(c1C)C(=O)C(C(=O)[O-])C=3c1[n-]c(c(C)c1CCC(=O)[O-])\C=2.[Cu].[Na+].[Na+] (stereo not drawn)	HCMV UL50-53 inh 52.5 (no result: GIV-Gai inh)
O=C(CSc1nnc2sc3ccccc3n12)N1CCc2ccccc2C1	none (no result: GIV-Gai inh)
CC(C)(C)C(=O)Nc1ccc2c(c1)C(=O)C(=O)c1ccccc1-2	HCMV UL50-53 inh 121.9 (no result: GIV-Gai inh)
CC(C)(C)C(=O)Nc1ccc(-c2nc3ccccc3s2)c(O)c1	none (no result: GIV-Gai inh)
CC(C)(C)C(=O)Nc1c(Cl)c(C2CC2)nn1-c1ccccc1	none
Cc1n[nH]c(C)c1N1C(=O)c2cccc3c(Br)ccc(c23)C1=O	none
Cc1n[nH]c(C)c1N1C(=O)c2cccc3c(N)ccc(c23)C1=O	GIV-Gai inh -42.3 (no result: HCMV UL50-53 inh)
Nc1ccc2c3c(cccc13)C(=O)N(c1ccccc1)C2=O	GIV-Gai inh -30.3
CN(C)c1ccc2c3c(cccc13)C(=O)N(c1ccccc1)C2=O	none
O=C1c2cccc3c(N4CCNCC4)ccc(c23)C(=O)N1c1ccc(Cl)cc1	GIV-Gai inh -91.0
Cc1cccc(N2C(=O)c3cccc4c(N5CCNCC5)ccc(c34)C2=O)c1	none
COc1ccc(C(=O)Nc2ccc(NC(=O)c3ccco3)c(Cl)c2)cc1Br	none
Cc1nn(CCCC(=O)NC(C)C)c(=O)c2cc3sccc3n12	none (no result: HCMV UL50-53 inh)
COc1cc2c(cc1OC)NC(=O)C2	HCMV UL50-53 inh 63.6
COc1cc2c(cc1OC)C(c1ccccc1)CC(=O)N2 (stereo not drawn)	none
N#Cc1c(N)nc(SCC(=O)c2ccc(Br)cc2)c(C#N)c1-c1ccccc1	none
COc1ccc(-c2c(C#N)c(N)nc(SCC(=O)OCc3ccccc3)c2C#N)cc1	none
N#Cc1c(N)nc(SCC(=O)Nc2ccc([N+](=O)[O-])cc2)c(C#N)c1-c1ccco1	none
CCOc1ccc(-c2c(C#N)c(N)nc(SCC(=O)OC)c2C#N)cc1	HCMV UL50-53 inh 73.1
N#Cc1c(N)nc(SCC(=O)c2ccc(Br)cc2)c(C#N)c1-c1cccs1	HCMV UL50-53 inh 40.3
N#Cc1c(N)nc(SCC(=O)Nc2ccccc2)c(C#N)c1-c1ccccc1	HCMV UL50-53 inh 24.1
CN(C)c1ccc(-c2nc3cc(NC(=O)c4cc([N+](=O)[O-])ccc4Br)ccc3o2)cc1	none
COc1ccc2nc(SCC(=O)Nc3ccc(-c4nc5ccccc5o4)cc3)[nH]c2c1	none (no result: HCMV UL50-53 inh)
O=C(c1ccccc1)n1cnc2ccccc21	none
C=CC1=C(C(=O)O)N2C(=O)C(NC(=O)C(=NOCC(=O)O)c3csc(N)n3)C2SC1 (stereo not drawn)	HCMV UL50-53 inh 94.9 (no result: GIV-Gai inh)
C=CC1=C(C(=O)O)N2C(=O)[C@H](NC(=O)C(=NO)c3csc(N)n3)[C@H]2SC1	none (no result: GIV-Gai inh)
O=C(O)COc1ccc2c(c1)C(=NO)c1cc(OCC(=O)O)ccc1-2	none (no result: HCMV UL50-53 inh)
O=C(O)COc1ccc2c(c1)C(=O)c1cc(OCC(=O)O)ccc1-2	GIV-Gai inh 84.0
OC(c1ccc(Cl)cc1)C(O)c1nc2ccccc2[nH]1 (stereo not drawn)	none (no result: GIV-Gai inh)
OCC(O)C(O)C(O)C(O)c1nc2ccccc2[nH]1 (stereo not drawn)	HCMV UL50-53 inh 37.2 (no result: GIV-Gai inh)
CN(C)c1ccc(/C=c2/sc3nc(-c4ccc(Cl)cc4)nn3c2=O)cc1	none (no result: HCMV UL50-53 inh)
CCN(CC)c1ccc(/C=c2\sc3nc(-c4ccco4)nn3c2=O)cc1	GIV-Gai inh -83.2
CCOC(=O)c1c(C)n(C)c2ccc(O)cc12	none
CCOC(=O)c1c2ccc(O)cc2n2ccccc12	GIV-Gai inh 69.0
Cc1[nH]c(C(=O)N2CCN(c3ccccc3F)CC2)c(C)c1S(=O)(=O)N1CCC(C)CC1	none
O=C(/C=C(\O)c1ccc(Cl)cc1)C(F)(F)F	none
Cc1ccc(S(=O)Cc2ccc(C(=O)NC3CCCC(C)C3C)o2)cc1 (stereo not drawn)	none
